For one experiment, the target named is caspase-1 (Homo sapiens, UniProt P29466). The experiment in a line: Screening on caspases inhibiting activity (recombinant enzyme, fluorogenic AMC substrate). Format: biochemical. Particulars: Irreversible Inhibitors. How it is done:
(§1) In the present experiment, recombinant caspases were purified from a transformed bacterium after human caspase genes were cloned into the expression vector pET, and then used in the experiment (Thornberry, N.A. et .al. Nature, 1992, 356, 768. Thombeny, N.A. Methods in Enzymology, 1994, 615.).
(§2) Enzymatic activity was measured by a known procedure (Walker N.P.C. et al., Cell 1994, 78, 343). Briefly, 10 ng of recombinant protein was mixed with 50 mM Tris(pH 7.0), 1mM DTT, 0.5 mM EDTA, 10% Glycerol buffer containing 1∼100 µM of enzyme substrate, Ac-YVAD-AMC or Ac-DEVD-AMC and then the changes by isolated AMC at 37°C were recorded. The inhibitory activity for caspases was calculated from the early enzyme reaction rate by measuring the changes with fluorescence excited at […] and emitted at 460 nm (Range; Ki<100nM).

Chains of the proteins cited; added tags and fusions are not shown. Residues count along the entry.
UniProt P29466, 120-297 limits assumed: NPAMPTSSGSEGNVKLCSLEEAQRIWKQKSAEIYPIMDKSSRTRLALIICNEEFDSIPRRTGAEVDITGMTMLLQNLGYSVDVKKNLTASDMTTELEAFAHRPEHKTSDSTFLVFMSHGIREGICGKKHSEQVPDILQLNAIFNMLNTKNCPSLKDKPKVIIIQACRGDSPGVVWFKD
UniProt P29466, 317-404 limits assumed: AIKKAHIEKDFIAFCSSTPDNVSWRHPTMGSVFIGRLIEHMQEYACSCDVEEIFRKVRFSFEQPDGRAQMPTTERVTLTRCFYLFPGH
UniProt P42574, 29-175 limits assumed: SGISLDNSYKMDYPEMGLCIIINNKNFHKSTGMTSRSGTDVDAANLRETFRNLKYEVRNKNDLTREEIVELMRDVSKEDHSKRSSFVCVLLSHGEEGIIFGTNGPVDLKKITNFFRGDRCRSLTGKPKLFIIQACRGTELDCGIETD
UniProt P42574, 176-277 limits assumed: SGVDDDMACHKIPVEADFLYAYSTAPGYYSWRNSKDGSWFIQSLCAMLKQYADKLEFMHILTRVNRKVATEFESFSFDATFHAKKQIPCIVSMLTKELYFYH

Another experiment concerns the target caspase-3 (Homo sapiens, UniProt P42574). Described as above. Format: biochemical. Particulars: Irreversible Inhibitors. How it is done:
as §1, §2

The values below come from EP1212309B1, “CASPASE INHIBITOR” (LG Chem Investment, Ltd., priority 1999, dated 2001).

Consider `CC(C)[C@H](NC(=O)Cc1c[nH]c2ccccc12)C1=NOC(Cc2ccccc2)(C(=O)N[C@@H](CC(=O)O)C(=O)COC(=O)c2c(Cl)cccc2Cl)C1` (single isomer, unassigned), for which, at caspase-1, the “Kobs/[I] for caspase-1” value is 294000 M⁻¹ s⁻¹. Moreover, the “Kobs/[I] for caspase-3” value on caspase-3 was 132 M⁻¹ s⁻¹.
